US10570118B2, “Isoquinolones as BTK inhibitors” (Boehringer Ingelheim International GmbH, priority 2016, dated 2020)

Amino acid sequences for entries named in this document (tags omitted).
UniProt Q06187, whole entry: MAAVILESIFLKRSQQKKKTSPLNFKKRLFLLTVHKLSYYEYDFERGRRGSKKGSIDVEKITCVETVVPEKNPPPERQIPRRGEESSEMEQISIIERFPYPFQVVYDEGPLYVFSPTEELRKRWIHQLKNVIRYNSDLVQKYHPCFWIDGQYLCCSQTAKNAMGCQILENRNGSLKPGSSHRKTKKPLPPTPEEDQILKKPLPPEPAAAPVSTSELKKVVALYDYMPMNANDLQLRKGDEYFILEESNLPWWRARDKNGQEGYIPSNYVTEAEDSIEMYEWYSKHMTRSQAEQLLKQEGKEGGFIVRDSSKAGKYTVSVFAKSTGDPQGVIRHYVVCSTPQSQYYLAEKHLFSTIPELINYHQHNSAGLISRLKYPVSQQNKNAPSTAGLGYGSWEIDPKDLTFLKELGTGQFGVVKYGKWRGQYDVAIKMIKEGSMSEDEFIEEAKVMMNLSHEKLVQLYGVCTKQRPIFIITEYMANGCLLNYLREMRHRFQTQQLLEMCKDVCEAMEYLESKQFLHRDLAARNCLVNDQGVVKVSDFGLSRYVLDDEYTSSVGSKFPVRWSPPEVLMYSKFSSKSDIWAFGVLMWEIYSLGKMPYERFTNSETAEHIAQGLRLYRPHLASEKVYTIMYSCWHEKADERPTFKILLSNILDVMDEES

Molecular target: human full length His-tagged BTK (Homo sapiens (Human), UniProt Q06187)
Assay: BTK Lanthscreen Eu Kinase Binding assay
Details: read-out: BTK IC50; TR-FRET tracer displacement, 2 nM BTK, 30 min pre-incubation
Protocol: BTK Lanthscreen® Eu Kinase Binding assay:
A Lanthscreen® Eu Kinase Binding assay (Life Technologies) was performed to quantitate the ability of test compounds to bind to BTK. The assay is based on the binding and displacement of Alexa Fluor647-labeled Kinase Tracer #236 to the ATP-binding site of human full length His-tagged BTK (Life Technologies cat # PV3587) with TR-FRET detection using a europium-labeled anti-His antibody. The assay was assembled in 384-well low volume NBS black plates (Corning) where 2 nM BTK and test compound in DMSO at varying concentrations were pre-incubated for 30 min at 28° C. in assay buffer consisting of 50 mM HEPES, pH 7.4, 10 mM MgCl2, 1 mM EGTA. 100 μM Na3VO4 and 0.01% Brij 35. Then, 2 nM of Eu-anti His antibody and 30 nM Kinase Tracer were added and incubated for […] at 28° C. Following incubation, TR-FRET signal was read on an Envision plate reader (Excitation: 340 nm; Emissions: 615 and 665 nm). The 665: 615 nm emission ratio was calculated and converted to POC compared to control and blank wells.

CC#CC(=O)N1CCC1Cc1cc2cc(C3CC3)ccc2c(=O)n1-c1cccc(-c2cc(C(N)=O)n(C)c2)c1CO (centres unmarked)
IC50: 0.11 µM

C=CC(=O)N1CC(c2cc3cc(C4CC4)ccc3c(=O)n2-c2cccc(-c3ccc4[nH]ncc4c3)c2CO)C1
IC50: 0.0031 µM
